Data reported in ChEMBL document CHEMBL4251654, “Structure-based design of human immuno- and constitutive proteasomes inhibitors” (Eur J Med Chem, 2018).

Chains of the proteins cited; added tags and fusions are not shown. Lines headed by an entry give the natural chain unless they say otherwise; changes in a name come on top.
UniProt P49721: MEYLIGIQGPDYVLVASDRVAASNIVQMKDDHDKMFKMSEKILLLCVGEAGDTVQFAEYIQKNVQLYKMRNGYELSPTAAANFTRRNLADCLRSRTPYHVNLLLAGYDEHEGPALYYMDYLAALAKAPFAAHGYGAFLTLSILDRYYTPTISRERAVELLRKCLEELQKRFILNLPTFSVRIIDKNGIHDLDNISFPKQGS

Target: Proteasome Macropain subunit (Homo sapiens) (UniProt P49721)
Assay: Activation of human 20S constitutive proteasome beta-2 at 50 uM using BocLRR-AMC as substrate incubated for 15 mins measured for 45 mins by fluorescence assay relative to control

fold change (FC): 1.4
Structure (SMILES): CC(C)(C)OC(=O)N[C@@H](Cc1ccc(OCc2ccccc2)cc1)C(=O)N[C@@H](CC(N)=O)C(=O)N[C@@H](C[C@]1(O)C(=O)Nc2ccccc21)C(=O)NCc1ccccc1
